Here are results for ten molecules from ChEMBL document CHEMBL3286342, “Design, synthesis, and structure-activity relationships of pyridoquinazolinecarboxamides as RNA polymerase I inhibitors” (J Med Chem, 2014).

pIC50: −log10 of the molar value.

A short description of the experiment: Inhibition of RNA polymerase-1 in human U2OS cells assessed as decrease in nucleolar localization of nucleolin after 3 hrs by epifluorescence microscopic analysis. Format: cell-based.
As for `CCN(CCN(C)C)C(=O)c1cccn2c(=O)c3cc4ccccc4cc3nc12`, the pIC50 was less than 4.00.

As to `CN(C)CCCCNC(=O)c1cccn2c(=O)c3cc4ccccc4cc3nc12`, the pIC50 is 5.82.

In the case of `CN(C)CCCNC(=O)c1cccn2c(=O)c3cc4ccccc4cc3nc12`, the pIC50 was 6.32. The result for `O=C(NC1CNC1)c1cccn2c(=O)c3cc4ccccc4cc3nc12` reads 6.74; that for `CN1CCC(NC(=O)c2cccn3c(=O)c4cc5ccccc5cc4nc23)CC1`, 5.86; that for `CC(C)N1CCN(C(=O)c2cccn3c(=O)c4cc5ccccc5cc4nc23)CC1`, less than 4.00. For `CCN(CC)CCNC(=O)c1cccn2c(=O)c3cc4ccccc4cc3nc12`, the pIC50 is 6.72. Turning to `CC(CN(C)C)NC(=O)c1cccn2c(=O)c3cc4ccccc4cc3nc12` (stereo not given), the negative-log IC50 (pIC50) is 6.80. For `CC(CNC(=O)c1cccn2c(=O)c3cc4ccccc4cc3nc12)N(C)C` (stereo not given), the pIC50 was 7.40. For `CC(C)N(CCNC(=O)c1cccn2c(=O)c3cc4ccccc4cc3nc12)C(C)C` the value was 5.77.
